Measured values: patent publication US20250302795A1, “SMALL MOLECULE COMPOUNDS WITH NEGATIVE REGULATORY EFFECTS ON Nrf2 SIGNALING PATHWAYS AND THEIR POTENTIAL APPLICATIONS” (Beijing Hebabiz Biotechnology Co., Inc., priority 2022, published 2025)

How the values were obtained:
[1] = system: rats with nonalcoholic steatohepatitis induced by a high-fat diet and CCl4; experiment: Serum biochemical indices, high-fat diet and CCl4 model; type: in vivo, rat; conditions: end of tenth week of administration, positive control group
Protocol: (§1) Starting from the seventh week, they received subcutaneous injections of a 30% CCl4 olive oil solution at a dosage of 0.2 ml/100 g behind their back twice per week for a total of four times. Once the model was successfully replicated, the corresponding drugs were administered orally (10 ml/kg) in each treatment group, and both the normal control group and the model group received equal volumes of a 0.5% CMC-Na solution once daily for ten consecutive weeks. Throughout the experimental period, the rats were provided with ad libitum access to food and water, while the animal chamber was maintained under controlled conditions of quietness, natural lighting, a temperature of 25±0.5° C., and a humidity level of 55±5%. The rats' body weights were measured once per week and recorded.
(§2) At the end of the tenth week of administration, all rats underwent a 16-hour fasting period following their final administration and were intraperitoneally injected with a 20% ulinastatin solution (10 ml/kg) for anesthesia. Subsequently, blood samples were collected from the abdominal aorta and allowed to stand for one hour, and then centrifuged at 4° C. for fifteen minutes at a speed of 3000 r/min. Finally, the upper serum was stored at −80° C. Following the instructions provided with the biochemical index detection kit, levels of HDL-C, LDL-C, NEFA, AST, ALT, UA, TC, TG, PCIII, IV-C LN and HA in rat serum were determined.
According to the kit instructions, the concentration of fasting plasma glucose (FPG) in serum was determined using colorimetry, while the concentration of fasting insulin (FINS) in serum was measured through radioimmunoassay.

[2] = system: rats with nonalcoholic steatohepatitis induced by a high-fat diet and CCl4; experiment: Four indices of serum hepatic fibrosis, high-fat diet and CCl4 model; type: in vivo, rat; conditions: positive control group
Protocol: as §1
as §2, with “Finally, the upper serum was stored at −80° C.” left out

CC[C@H](C)C(=O)O[C@H]1C[C@@H](C)C=C2C=C[C@H](C)[C@H](CC[C@@H]3C[C@@H](O)CC(=O)O3)[C@H]21 [Lovastatin]
TC [1]: 1.76 mmol/L | TG [1]: 0.61 mmol/L | UA [1]: 119 µmol/L | HA [2]: 47.85 ± 19.06 µg/L | LN [2]: 117.50 ± 43.83 µg/L
